# AlphaSeq binding of Ab-14 light chain variants to a spike HR2 peptide

The target is the same throughout: PDVDLGDISGINAS, from the HR2 region of SARS-CoV-2 spike.

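The parent was found by panning a naive human phage display library on the peptide. Designed CDR sequences, proposed from the first random library and measured here. Several design methods are mixed in this list. The scFvs were displayed on barcoded MATa yeast, the peptide on MATalpha yeast. The frequency of each diploid, read from paired DNA barcodes, reflects how well the two displayed proteins bind. Read counts were normalised to the haploid input and turned into Kd by a linear fit to BCL2-family pairs of known affinity, for each replicate. Each pool was mated in six replicate cultures.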

Parent scFv Ab-14: VH joined to VL by three GGGGS repeats. Changes lie in the light chain CDRs alone.
VH: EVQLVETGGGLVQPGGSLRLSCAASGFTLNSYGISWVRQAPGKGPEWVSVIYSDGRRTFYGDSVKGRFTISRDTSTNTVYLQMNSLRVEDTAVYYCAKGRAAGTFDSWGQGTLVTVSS
VL: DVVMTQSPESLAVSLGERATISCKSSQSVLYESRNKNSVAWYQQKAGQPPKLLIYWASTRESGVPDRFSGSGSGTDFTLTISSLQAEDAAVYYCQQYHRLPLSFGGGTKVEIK

Variants are written as CDR1, CDR2 and CDR3 of the light chain (limits as in the source). Parent: KSSQSVLYESRNKNSVA, WASTRES, QQYHRLPLS. Kd is apparent (estimated from mating counts) and averaged on the log scale over replicates with a signal. Smaller is tighter. Where no diploid with the target was found in any replicate, the entry reads "not detected": below detection, most likely a poor binder, though not proof of it. Of ten entries with the parent sequence, four were seen in most replicates (averages 2.2 nM to 240 nM), three in one and three in none, so single entries are noisy.

CDR-L1,CDR-L2,CDR-L3,Kd,replicates with signal,control signals
KLSMSVLYECRNKNSVA,TASTRES,QQYHRLPLS,5.2 nM,5 of 6,0 of 18
KSSLHVLYDSRNTNSVA,NASTRNV,QQYHRLPLS,830 pM,6 of 6,2 of 18
SVTRETDENGLKMNSVA,DAAEAMT,QQYQRLPLT,1.9 nM,6 of 6,0 of 18
KSSQSVLYESRNKNSVA,WAKTRES,QQYARLPLK,19 nM,5 of 6,0 of 18
KSSSSVLYESRNENSVA,SASTRES,QQYHRLPLS,4.8 nM,6 of 6,0 of 18
HLSSMSLTETVKSRNVA,ENNTREQ,QQYDRLPLS,20 nM,5 of 6,1 of 18
KSSQSVLYESRNKNSVA,WASWRCS,QQIHRLPLS,not detected,0 of 6,0 of 18
KSSQSVLYESRNKQSVA,WASTRES,QQYLRLPLS,380 nM,3 of 6,1 of 18
KISQSNLYESRNKNSIA,NANQREQ,QQYHRLPLS,830 pM,6 of 6,0 of 18
HFEMFDIMENMYASSIA,NAHCLVE,QQYGRLPLT,84 nM,6 of 6,1 of 18
KLSQSVLYESRQKNSVA,QASTRES,QQYHRLPLS,1.5 nM,6 of 6,1 of 18
KSSQSVLYESGNKNSVA,NASTRED,QQYHRLPLS,910 pM,6 of 6,0 of 18
KSSQVELYESRNKNSVA,GASTRES,QQYHRLPLS,720 pM,6 of 6,0 of 18
KFSDSVELESRTKNSVA,NASTRES,QQYHRLPLS,880 pM,6 of 6,2 of 18
KLSQSVLYESHNKNSVA,NASTRMS,QQYHRLPLS,600 pM,6 of 6,4 of 18
QTTAFYEHGYDQQQAMA,NATMRDQ,QQYERLPLS,15 nM,6 of 6,2 of 18
KSSQSVGYESRNKNSVA,QASTRES,QQYHRLPLS,3.8 nM,6 of 6,1 of 18
KVSGFMRGLTQRKDSIA,DNNTRSN,QQYDRLPLS,4.3 µM,2 of 6,0 of 18
KFSQLVLYEGRTKNSVA,NASTRES,QQYHRLPLS,2.3 nM,6 of 6,2 of 18
HVAQTRQADISNKKSVA,EGEVLID,QQYGRLPFS,37 nM,6 of 6,0 of 18
KVSQSELYESRNKNSVA,NASTRES,QQYHRLPLI,1.6 nM,6 of 6,2 of 18
TLTQSVLMESHNKNSIA,DLSTRGS,QQYHRLPLS,1.3 nM,6 of 6,2 of 18
AFSGSHLYESRNLNSVA,NASTREE,QQYHRLPLS,800 pM,6 of 6,0 of 18
KLIQSVAMSSRNKDSIA,DNSTRED,QQYHRLPLS,7.4 nM,6 of 6,0 of 18
KLSQSVLYESRNKNNVA,EASQRES,QQYHRLPLS,320 pM,6 of 6,0 of 18
HVSPSVPYESRNKNSVA,NASTREE,QDYHRLPLS,370 pM,6 of 6,0 of 18
KSSDSVSYESRNKNSVA,WASTRES,QQYHRLPLS,160 nM,1 of 6,0 of 18
KLALITGLEKVSNNNVA,EMETRER,QQYNRLPLS,2.1 nM,6 of 6,0 of 18
KLSQSVLYESRNKFSVA,HASTRES,QQYHRLPLS,1.3 nM,6 of 6,0 of 18
KSSQSVLGQSRNKNSVA,DASTRES,QQYHRLPLS,1.5 nM,6 of 6,0 of 18
KSSQSVLYESNNKNNVA,WASTRES,QWYHRLPLS,not detected,0 of 6,0 of 18
KLSQSVCYGDRMKNSVA,NASTREQ,QQYHRLPLS,4.4 nM,6 of 6,0 of 18
MLRFDITDGQKNWNAIA,ETSELGA,QQYMHLPLG,22 nM,2 of 6,0 of 18
KSSQSWLYESRVKNSVA,GAQTRES,QQYHRPPVS,not detected,0 of 6,0 of 18
IVSQLMLWGMKAKNSIA,EAVTRLN,QQYDRLPLI,220 nM,2 of 6,2 of 18
KISMLQRYQQNAKNNIA,EMSRREE,QQYHRLPLS,740 pM,6 of 6,1 of 18
MISSLYNMGQFAINSVA,QAQTRNE,QQYDRLPLM,43 nM,4 of 6,0 of 18
KISQSVGYESRNKNSVA,EASTRES,QQYHRLPLS,760 pM,6 of 6,1 of 18
AFSGSHLYESRNQNSVA,NASTREE,QQYHRLPLS,350 pM,6 of 6,1 of 18
KIGHGLTTESRNNNSVA,QTETRVS,QHYHRLPLS,4.9 nM,6 of 6,1 of 18
TISQLHNMGTFAINSVA,QASIRNA,QQYDRLPLI,9.9 nM,6 of 6,1 of 18
HSSPSVEYESRNKNSVA,NASTRES,QQYHRLPLQ,1.5 nM,6 of 6,1 of 18
KLSQSHLYESRNKNSVA,DASQRES,QQYHRLPLS,680 pM,6 of 6,1 of 18
KHSQYVWLESRNKNSVA,NASTRES,QQYHRLPLS,1.3 nM,6 of 6,0 of 18
KQSQSVLYESRNKNAVA,DASTRES,QDYHWLPLS,120 nM,6 of 6,0 of 18
KSQQGVLYESRNKNHVA,GASTRES,QQYHRLPLS,12 nM,5 of 6,1 of 18
FSLGSELYESRNFNSVA,HASTRED,QQYHRLPLS,7.0 nM,6 of 6,1 of 18
KSSISYLIESRNKNSVA,EASTREE,QQYHRLPLS,220 pM,6 of 6,0 of 18
KLSQQDWYEQRNCNSVA,QASTREQ,QQYHRLPLS,3.2 nM,6 of 6,2 of 18
QLGWVDSGDTLSQGAIA,HAAELVD,QQYFRLPLL,7.2 nM,6 of 6,0 of 18
KASQSVLYESRVKNSVA,DASMRES,QQYHRLPLS,9.4 nM,5 of 6,0 of 18
KLMQSTQYESRNQNSVA,WASTRES,QQYHRLPLS,17 nM,6 of 6,2 of 18
IAVQSWLYESRNKNSVA,GASTRMS,QQYHRLPLI,34 nM,6 of 6,2 of 18
KLSQLVGYESRNKSRVA,DNSTRES,QQYDRLPLS,220 nM,5 of 6,3 of 18
KNSQPVLWESSCSNSVA,WASTRES,QQYHRLPLS,not detected,0 of 6,0 of 18
KLYDMSALTVTNIRNVA,DNSTREQ,QQYHRLPLS,11 nM,6 of 6,1 of 18
KISQAYLYEDRNKNSVA,QANQRES,QQYHRLPLS,900 pM,6 of 6,1 of 18
KLRHHNLDFYDFENNIA,GESMRAV,QQYYRLPLN,99 nM,6 of 6,2 of 18
KSQQSVLDEERNDNSVA,WASTRLS,QQYHRLPLS,33 nM,5 of 6,0 of 18
KLSQSVLYESRNKNSVA,WASTRAS,QQYHRLPLS,1.6 nM,6 of 6,3 of 18
ILSQSVLMGMHTKNNVA,QATMRFN,QQYHRLPFM,56 nM,6 of 6,0 of 18
KSSDSVLGESTNKNSVA,QASTRES,QQYHRLPLS,1.3 nM,6 of 6,3 of 18

The opening 9 entries, copied out:

CDR-L1	CDR-L2	CDR-L3	Kd	replicates with signal	control signals
KLSMSVLYECRNKNSVA	TASTRES	QQYHRLPLS	5.2 nM	5 of 6	0 of 18
KSSLHVLYDSRNTNSVA	NASTRNV	QQYHRLPLS	830 pM	6 of 6	2 of 18
SVTRETDENGLKMNSVA	DAAEAMT	QQYQRLPLT	1.9 nM	6 of 6	0 of 18
KSSQSVLYESRNKNSVA	WAKTRES	QQYARLPLK	19 nM	5 of 6	0 of 18
KSSSSVLYESRNENSVA	SASTRES	QQYHRLPLS	4.8 nM	6 of 6	0 of 18
HLSSMSLTETVKSRNVA	ENNTREQ	QQYDRLPLS	20 nM	5 of 6	1 of 18
KSSQSVLYESRNKNSVA	WASWRCS	QQIHRLPLS	not detected	0 of 6	0 of 18
KSSQSVLYESRNKQSVA	WASTRES	QQYLRLPLS	380 nM	3 of 6	1 of 18
KISQSNLYESRNKNSIA	NANQREQ	QQYHRLPLS	830 pM	6 of 6	0 of 18

In the paper, a design with two or fewer of six values counts as a poor binder. A sequence measured in both rounds can read differently, since the two assays cover different ranges. Nonspecific signal, from three strains lacking the peptide, appeared in 4% of pairings of all light chain designs, centred on 430 nM (5% of these signals below 38 nM); values are not corrected for it. Also given: how often the same scFv was detected with the empty control strains.

The measurements come from Li et al. 2023 (doi:10.1038/s41467-023-39022-2) through the FLAb antibody collection.